{"sequences": {"note": "The chains behind the UniProt entries cited, without tags or fusion partners. Residues count along the entry.", "UniProt P00742, 235-488 limits assumed": "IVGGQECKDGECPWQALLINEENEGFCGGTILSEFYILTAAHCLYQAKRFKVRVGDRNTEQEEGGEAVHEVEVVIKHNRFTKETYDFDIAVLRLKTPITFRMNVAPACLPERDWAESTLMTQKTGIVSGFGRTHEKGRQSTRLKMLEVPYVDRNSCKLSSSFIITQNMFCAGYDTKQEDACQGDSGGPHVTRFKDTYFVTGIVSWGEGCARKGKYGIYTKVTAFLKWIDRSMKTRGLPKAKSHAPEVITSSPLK", "UniProt P00742, 41-179 partner limits assumed": "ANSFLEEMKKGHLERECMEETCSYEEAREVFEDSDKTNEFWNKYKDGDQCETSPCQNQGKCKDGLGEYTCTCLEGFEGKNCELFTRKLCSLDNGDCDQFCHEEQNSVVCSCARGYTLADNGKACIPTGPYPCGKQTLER"}, "source": "patent US6403595B1", "biological_target": "human FXa (Homo sapiens, UniProt P00742)", "assay": "Inhibitory Effect on Human Activated Coagulation Factor X (FXa)", "details": "concentration of the test compound which inhibits 50% of FXa activity; substrate S-2765, 37° C., absorbance at 405 nm; tested form: HCl", "procedure": "(1) Inhibitory Effect on Human Activated Coagulation Factor X (FXa)\nIn 0.05M Tris-HCl buffer solution (pH 8.3) 225 μl containing 0.145 M sodium chloride and 2 mM calcium chloride, test compound dissolved in dimethylsulfoxide 51 and human FXa (0.3 unit/ml) 10 μl were reacted at 37° C. for 10 minutes. To the reaction solution was added substrate (3 mM, S-2765) 10 μl and the mixture was further reacted at 37° C. for 10 minutes. To the reaction solution was added 50% acetic acid aqueous solution 25 μl to stop the reaction.\nIC50 values (concentration of the test compound which inhibits 50% of FXa activity) were calculated by measuring change of absorbance at 405 nm with microplate reader.", "data": [{"smiles": "N=C(N)c1ccc(CN2CCN(S(=O)(=O)c3ccc4cc(Cl)ccc4c3)CC2=O)cc1", "values": [{"measurement": "IC50", "result": 50, "unit": "nM"}]}]}
